Test [1] deals with Histamine H1 receptor (Homo sapiens, UniProt P35367). Conditions: read-out: Binding data, Ki ± SEM, previously reported; cited from earlier work.
In test [2] the target is 5-HT2C receptor (Homo sapiens, UniProt P28335). Kind of test: NIMH-PDSP radioligand binding, 5-HT2C.

Protein sequences, listed by entry. Tags and fused reporters are not part of them. Residues count along the entry.
UniProt P35367, whole entry, species assumed: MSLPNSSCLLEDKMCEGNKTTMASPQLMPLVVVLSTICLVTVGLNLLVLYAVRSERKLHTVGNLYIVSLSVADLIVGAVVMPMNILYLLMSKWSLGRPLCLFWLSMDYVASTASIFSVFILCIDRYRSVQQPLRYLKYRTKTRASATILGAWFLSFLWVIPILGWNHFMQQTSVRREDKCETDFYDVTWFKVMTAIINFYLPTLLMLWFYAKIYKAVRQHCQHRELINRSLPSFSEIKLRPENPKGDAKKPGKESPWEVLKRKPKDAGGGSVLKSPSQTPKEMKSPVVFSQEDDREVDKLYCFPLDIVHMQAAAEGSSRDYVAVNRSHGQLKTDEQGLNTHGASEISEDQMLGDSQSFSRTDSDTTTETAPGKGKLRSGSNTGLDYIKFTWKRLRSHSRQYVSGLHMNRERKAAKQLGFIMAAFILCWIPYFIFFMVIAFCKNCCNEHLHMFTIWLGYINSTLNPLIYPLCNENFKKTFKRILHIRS
UniProt P28335, 33-458: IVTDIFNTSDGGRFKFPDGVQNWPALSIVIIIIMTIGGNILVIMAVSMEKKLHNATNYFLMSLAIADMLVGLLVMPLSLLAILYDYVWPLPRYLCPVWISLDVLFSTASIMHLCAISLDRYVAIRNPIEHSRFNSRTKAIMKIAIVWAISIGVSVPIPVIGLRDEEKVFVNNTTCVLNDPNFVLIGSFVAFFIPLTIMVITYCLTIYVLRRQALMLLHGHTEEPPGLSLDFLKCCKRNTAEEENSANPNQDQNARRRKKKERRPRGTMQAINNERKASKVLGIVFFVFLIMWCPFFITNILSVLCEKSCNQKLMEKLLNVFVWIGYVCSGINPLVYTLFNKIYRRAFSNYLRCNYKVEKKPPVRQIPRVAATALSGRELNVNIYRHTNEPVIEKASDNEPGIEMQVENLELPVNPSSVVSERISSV

By Ki is commonly meant a dissociation constant, usually derived from enzyme kinetics or from competition with a known ligand. As for `O=C(CCCN1CCN(c2ccc(Cl)cc2)CC1)c1ccc(F)cc1` [Compound 3], the Ki in test [1] is 158 ± 36 nM.
Consider `OC1(c2ccc(Cl)cc2)CC2CCC(C1)N2CCCOc1ccc(F)cc1` (centres unmarked) [Compound 7, 3-(4-Chlorophenyl)-8-(3-(4-fluorophenoxy)propyl)-8-azabicyclo[3.2.1]octan-3-ol], for which the “Binding data; Ki ± SEM, 5-HT2C” value in test [2] is reported as “MP (Missed primary assay threshold of 50% inhibition)”.
